Data published in patent publication US12065409B2, “Analogs of 2-pralidoxime as antidotes against organophosphorus nerve agents” (dated 2024).

Columns and labels:
human AChE = human AChE (Homo sapiens, UniProt P22303); assay: Ellman's assay: reactivation of paraoxon-ethyl-inhibited human AChE; settings: read-out: EC50, normalized AChE activity (reactivation); 10 U/mL human AChE, 20 μM paraoxon-ethyl, 0-600 μM reactivator, pH 7.4; mean±SEM
[1] = molecular target: Electrophorus electricus (electric eel) AChE (Electrophorus electricus, UniProt O42275); assay: Ellman's assay: reactivation of paraoxon-inhibited electric eel AChE; settings: read-out: EC50, AChE activity (reactivation); 10 U/mL eel AChE, 20 μM paraoxon-ethyl, at 25 minutes, 1:89:10 isopropanol:phosphate:Tris pH 7.4; mean±SEM

In the case of `C#CCOc1cc[n+](C)c(/C=N/O)c1`, the EC50 (human AChE) is reported as 55 µM.
In the case of `C[n+]1ccc(CCCO)cc1/C=N/O`, the EC50 (human AChE) is reported as 94 µM.
For `CCOc1cc[n+](C)c(/C=N/O)c1`, the EC50 (human AChE) was 106 µM.
`CCSc1cc[n+](C)c(/C=N/O)c1` was tested, and the EC50 (human AChE) was 43 µM.
`C[n+]1ccc(CCCCO)cc1/C=N/O` gave an EC50 (human AChE) of 43 µM.
`C[n+]1ccc(OCC(F)(F)F)cc1/C=N/O` was tested, and the EC50 (human AChE) was 240 µM.
`CCCCOc1cc[n+](C)c(/C=N/O)c1` showed an EC50 [1] of 19 µM.
